Assay results from patent US12286404B2, “Solid state forms of Mitapivat and process for preparation thereof” (TEVA PHARMACEUTICALS INTERNATIONAL GMBH, priority 2020, dated 2025).

How the values were obtained:
[1] = Storage stability under humidity/temperature conditions; assay type: physicochemical; settings: for at least one month
Hygroscopicity = assay type: physicochemical
[2] = Stability under stress conditions (heating, grinding, high pressure); assay type: physicochemical; settings: grinding and high pressure
[3] = at different pH's

Substance | stability under regular conditions ([1]; 60% RH at RT) | stability under accelerated conditions ([1]; 75% RH at 40° C.) | hygroscopicity (Hygroscopicity) | stability under stress conditions [2] | solubility compared to Mitapivat hemisulfate [3]
Mitapivat hemisulfate:adipic acid | polymorphically and chemically stable | polymorphically and chemically stable | non-hygroscopic | stable | improved solubility
Mitapivat hemisulfate:ascorbic acid | – | – | – | – | improved solubility
